Literature values, collected in patent US12472150B2, “Delivery system comprising silicon-containing material” (SISAF LIMITED, priority 2019, dated 2025).

Details: room temperature

Orthosilicic acid [OSA]
Concentration at which OSA is stable in water (solubility limit of the amorphous phase): below 2 mM
